We go through 55 compounds from PubChem BioAssay AID504692 (The Scripps Research Institute Molecular Screening Center, 2011).

Sequences of proteins named here, by UniProt entry; tags and fusion partners are left off.
UniProt P47898, whole entry, looked up: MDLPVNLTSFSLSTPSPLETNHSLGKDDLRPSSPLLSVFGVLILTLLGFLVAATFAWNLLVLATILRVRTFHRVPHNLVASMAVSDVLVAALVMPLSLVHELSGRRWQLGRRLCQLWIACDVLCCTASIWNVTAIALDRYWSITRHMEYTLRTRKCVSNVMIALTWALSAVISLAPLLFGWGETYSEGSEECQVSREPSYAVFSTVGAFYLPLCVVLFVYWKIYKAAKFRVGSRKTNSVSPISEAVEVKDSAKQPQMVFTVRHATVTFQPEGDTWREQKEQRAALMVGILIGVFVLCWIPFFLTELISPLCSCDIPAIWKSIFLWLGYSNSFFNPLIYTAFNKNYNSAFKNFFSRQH

Molecules are shown by their SMILES. This is a selection; strong and weak results do not stand in their true shares. Calls of active or inactive are those of the source. No stated cut-off is given here; in the data, active means activation mostly above about 9.5% (no sharp cut-off); inactive means mostly below about 7.6%.

This test addresses 5-hydroxytryptamine receptor 5A (Homo sapiens) (UniProt P47898). Put plainly: HTR5A agonists in luminescence cell assay, primary screen, counter-screen for OPRM1-OPRD1 heterodimer agonist project, full-deck HTS (AID 504692).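 Further: 0% = cells with vehicle only and 100% = reference agonist.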 Conditions: cell-based, at 9.3 µM, stronger effect = higher value. In general terms: A counterscreen serves to expose hits that act by an unwanted route or on another target.
Take `C=CCOC(=O)C1=C(C)N=C2SCCC(=O)N2C1/C=C/c1ccccc1OC` (stereo not given): the activation is inactive: -4.57%.

As to `O=C(c1cccc(Cl)c1)N1CCn2c1nc1ccccc12`, the activation was inactive: -1.87%. As to `CCC(=O)Nc1ccc2c(c1)nc1n2CCN(CCOC)C1`, the activation is inactive: -0.05%.

With `COc1ccc(C)cc1S(=O)(=O)N1c2ccc(C)cc2C2CN(C)CCC21` (stereo not given), the activation is inactive: 2.59%.

With `Cc1n[nH]c(C)c1CCC(=O)N/N=C/C=C/c1ccccc1`, the activation is inactive: -3.84%. To `N=c1n(CCCOc2ccc(F)cc2)c2ccccc2n1CC(N)=O` belongs inactive: -1.67%.

As for `O=C1Cn2c(nc3ccccc32)N1c1ccccc1F`, the activation was inactive: 2%.

Regarding `CCC(C(=O)NC1CCCCC1)n1c(SCc2ccc(F)cc2)nc2ccncc21` (stereo not given), the activation is inactive: 0.16%. Consider `Cc1ccc(-c2csc(N3CCN(c4ccc5nc(-c6ccncc6)n(CCN6CCCCC6)c5c4)CC3)n2)cc1`, for which the activation was inactive: 5.7%. With `CN(C)C(=O)Cn1c(SCC(=O)Nc2ccc3c(c2)OCO3)nc2ccccc21`, the activation was inactive: 4.44%. The value for `Nc1nonc1-c1nc2ccccc2n1CC(=O)N/N=C\c1ccc(-c2ccc(Cl)cc2)o1` was inactive: -1.97%; that for `CSc1nc(N)nc2c1ncn2CC(=O)NCc1ccc2[nH]ccc2c1` was inactive: 3.19%; that for `NC(=O)c1cc([N+](=O)[O-])cc([N+](=O)[O-])c1N` was inactive: 1.37%. Regarding `C[C@H](O)[C@@H]1C(=O)N2CCc3ccc(-c4ccccc4)cc3[C@@H]2C[C@@H]1N(C)C(=O)NC1CCCCC1`, the activation was inactive: -2.67%. To `O=C(Nc1ccccc1)N1CCC(n2c(=O)[nH]c3ccccc32)CC1` belongs inactive: 0.91%.

As to `CC1CCCN(C(=O)Cn2c(-c3nonc3N)nc3ccccc32)C1` (stereo not given), the activation was inactive: -3.94%. The value for `Cc1ccc2c(c1)C1CN(C)CCC1N2C(=O)c1ccc(Cl)c(S(=O)(=O)N2CCOCC2)c1` (stereo not given) was inactive: 0.54%; that for `CN(CC(=O)Nc1ccc(F)c(F)c1F)C(=O)Cn1cnc2c1c(=O)n(C)c(=O)n2C` was inactive: 0.74%; that for `CN(C(=O)Cc1ccc(Cl)c(Cl)c1)[C@H]1CCCC[C@H]1N1CCCC1` was inactive: 3.25%.

In the case of `O=C(CSc1nc2ccccc2n1CC(=O)N1CCCCC1)N1CCCCC1`, the activation is inactive: 3.31%. In the case of `CC(CNC(=O)Cn1cnc2c(NCc3ccccc3)ncnc21)c1ccccc1` (stereo not given), the activation was inactive: 1.14%. Regarding `CCN(CC)CCn1c(NS(=O)(=O)c2ccc(C)cc2)nc2ccccc21`, the activation was inactive: 8.87%. Consider `O=C(Cn1cnc2c(NCc3ccccc3)ncnc21)NCc1ccc2c(c1)OCO2`, for which the activation was inactive: 2.34%. The value for `Cc1ccc(N/C(=N/P(=O)(N2CCOCC2)N2CCOCC2)N2CCOCC2)cc1` was inactive: -0.46%. As for `CCOCN(C(=O)Cn1c(C(C)O)nc2ccccc21)c1c(C)cccc1CC` (stereo not given), the activation was inactive: 4.41%. In the case of `CC(O)c1nc2ccccc2n1CC(=O)N1CCN(c2ccccc2)CC1` (stereo not given), the activation was inactive: 0.21%. To `CN1CCN(CCN2CCn3c2nc2ccccc23)CC1` belongs inactive: -1.19%; to `COc1ccccc1OP(=O)(Nc1ccc(C)cn1)Oc1ccccc1OC`, inactive: 1%; to `CN1CC[C@]2(CCN3CCc4c(oc5ccccc45)[C@@H]3C2)N(C)C1=O`, inactive: 9.48%. To `Cc1nc2cc(F)ccc2n1C1CCN(Cc2nnnn2CCc2ccccc2)CC1` belongs inactive: -1.15%; to `CCC(C)(C)n1nnnc1CN1CCC(n2c(C)nc3cc(C(F)(F)F)ccc32)CC1`, inactive: 4.05%.

Take `O=C1Cn2c(nc3ccccc32)N1c1cccc(C(F)(F)F)c1`: the activation was inactive: 3.77%. To `COc1ccc(C(=O)CSc2nc3ccccc3n2CC(=O)NC(C)(C)C)cc1` belongs inactive: -2.83%; to `CCOc1cc(N2CCOCC2)c(OCC)cc1NC(=O)Cn1cnc2c(=O)n(C)c(=O)n(C)c21`, inactive: -2.42%. On to `COc1ccc(CNC(=O)CCCCCNC(=O)N2CCn3c2nc2ccccc23)cc1`, for which the activation was inactive: -0.53%. As to `CCCCOC(=O)Cn1c(=N)n(CCN2CCOCC2)c2ccccc21`, the activation was inactive: -1.14%. On to `CN1CCCC(OC(=O)C(c2ccccc2)c2ccccc2)C1` (stereo not given), for which the activation is inactive: -1.71%.

`Cc1ccc(/C=N/NC(=O)Cn2cnc3ccccc32)cc1`: the activation is inactive: -0.56%. `O=C(Cn1c(NCCO)nc2ccccc21)NCCc1ccccc1`: the activation is inactive: -2.5%. `Clc1ccc(Cl)c(NC2=NCC(CBr)S2)c1` (stereo not given): the activation was inactive: 3.32%.

`FC(F)(F)c1ccc2c(c1)nnn2C1CCN(Cc2nnnn2Cc2ccccc2)CC1`: the activation was inactive: 0.81%.

`CCC(=O)Nc1ccc(NC(=S)NC(=O)/C=C/c2ccccc2)cc1`: the activation was inactive: -6%. To `COc1ccc2nc(NC(=O)Cn3cnc4c(=O)n(C)c(=O)n(C)c43)sc2c1` belongs inactive: 2.86%; to `COCC(=O)N(C)[C@H]1C[C@H]2c3cc(N4CCN(C)CC4)ccc3CCN2C(=O)[C@H]1[C@H](C)O`, inactive: 0.02%; to `Nc1ccc([As](=O)(O)c2ccc(N)cc2)cc1`, inactive: 3.46%.

`c1ccc(CCn2nnnc2CN2CCC(n3nnc4ccccc43)CC2)cc1`: the activation was inactive: -1.65%.

`CCC(CC)NC(=O)Cn1c(C(C)NC(C)=O)nc2ccccc21` (stereo not given): the activation is inactive: 3.44%. As to `C[C@H](NC(=O)N1CCn2c1nc1ccccc12)C(=O)NC1CCCCC1`, the activation was inactive: -3.3%. To `CCc1ccc(C(C)NC(=O)Cn2cnc3c(=O)n(C)c(=O)n(C)c32)cc1` (stereo not given) belongs inactive: 3.11%. With `Cc1nc2ccccc2n1CC(=O)NC(C)C1CC2CCC1C2` (stereo not given), the activation is inactive: 0.72%.

For `COc1ccc(-c2ccc3c(c2)[C@@H]2C[C@H](N(C)C(=O)Nc4ccccc4)[C@H]([C@H](C)O)C(=O)N2CC3)cc1`, the activation was inactive: 0.07%.

Consider `C[N+]1=C2C=CC=CC=C2SC12C([N+](=O)[O-])=CC([N+](=O)[O-])=C[C-]2[N+](=O)[O-]` (stereo not given), for which the activation was inactive: -5.05%.

As to `Cc1ccc(-c2nnc(N3CCN(C(=O)Cn4c(=O)n(C)c5ccccc54)CC3)c3ccccc23)cc1`, the activation was inactive: 0.96%. On to `COc1ccc(/C([O-])=C(/C(=S)Nc2ccc(C)c(C)c2)n2c[n+](C)c3ccccc32)cc1OC`, for which the activation is inactive: -4.64%.

Take `CCN(/C(=N/P(=O)(N1CCOCC1)N1CCOCC1)N1CCOCC1)c1ccc(OC)cc1`: the activation is inactive: 3.2%.
